# Source: PubChem BioAssay AID431 (Sanford-Burnham Center for Chemical Genomics, 2006)
# The entries are a selection whose mix differs from that of the whole data set. Results with a measured potency or affinity are listed apart. Some results for these compounds are left out of this collection, so the calls shown say nothing about other tests. Active and inactive are the calls of the source.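 How the source made its calls: active means compounds whose percent cytotoxicity in the single-dose primary screen, scaled between solvent and toxic-drug controls, exceeds 50; inactive means the rest.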
# Test: viability loss of HPDE-C7K cells – cell-based, fluorescence, HTS, primary screen (AID 431);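 further: 0% = DMSO solvent wells and 100% = doxorubicin-treated wells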
# Conditions: HPDE-C7K KRASV12 cells, Alamar Blue viability, 48 h; at 10 µM; active compounds read high
row,SMILES,cytotoxicity
1,O=C(OC1CN2CCC1CC2)C(CO)(c1ccccc1)c1ccccc1 (configuration not stated),inactive: -10.9%
2,CN(C)c1cccc(C(=O)NCC2(N(C)C)CCCCC2)c1,inactive: -7%
